Data on 1 compound can be found in article PMC7580997 (Journal of medicinal chemistry, 2019).

Amino acid sequences for entries named in this document (tags omitted). Residues count along the entry.
UniProt P98170, 253-347: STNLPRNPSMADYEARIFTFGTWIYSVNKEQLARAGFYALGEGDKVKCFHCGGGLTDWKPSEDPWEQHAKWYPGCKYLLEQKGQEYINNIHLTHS

The target of this assay is BIR3 domain of XIAP (Homo sapiens, UniProt P98170). Particulars: regardless of the incubation times of either 2 h or 6 h.

Regarding `CN[C@@H](C)C(=O)N[C@H]1CN(C(=O)CC(C)C)CC[C@H]2CC[C@@H](C(=O)NC(c3ccccc3)c3ccccc3)N2C1=O` [AT406], the “XIAP-BIR3 ΔTm” value was under 20 °C.
